Experimental data as given in ChEMBL document CHEMBL3091350, “Synthesis and evaluation of the antimalarial, anticancer, and caspase 3 activities of tetraoxane dimers” (Bioorg Med Chem, 2013).
pIC50: −log10 of the molar value.

Assays:
HL-60 = assay: Cytotoxicity against human HL60 cells assessed as cell viability after 24 hrs by MTT assay
[1] = Cytotoxicity against human HT29-AK cells assessed as cell viability after 24 hrs by MTT assay
KB = assay: Cytotoxicity against human KB cells assessed as cell viability after 24 hrs by MTT assay

SMILES: CC1(CCC(=O)Nc2cccc(NC(=O)CCC3(C)OOC4(CCCCC4)OO3)c2)OOC2(CCCCC2)OO1 (stereo unspecified)
- pIC50 (HL-60): 5.15
- pIC50 [1]: 4.87
- pIC50 (KB): 5.11

SMILES: CC1(CCC(=O)NCCCCNC(=O)CCC2(C)OOC3(CCCCC3)OO2)OOC2(CCCCC2)OO1 (stereo unspecified)
- pIC50 (KB): 4.39

SMILES: CC1(CCC(=O)Nc2ccc(NC(=O)CCC3(C)OOC4(CCCCC4)OO3)cc2)OOC2(CCCCC2)OO1 (stereo unspecified)
- pIC50 (HL-60): 4.91
- pIC50 [1]: 5.42

SMILES: CC1(CCC(=O)NCCNC(=O)CCC2(C)OOC3(CCCCC3)OO2)OOC2(CCCCC2)OO1 (stereo unspecified)
- pIC50 (HL-60): 5.15
- pIC50 [1]: 4.43
- pIC50 (KB): 4.41

SMILES: CC1(CCC(=O)NCCCNC(=O)CCC2(C)OOC3(CCCCC3)OO2)OOC2(CCCCC2)OO1 (stereo unspecified)
- pIC50 (HL-60): 5.18
- pIC50 [1]: 4.38
